Assay results: patent publication US6974837B2, “Compositions comprising sibutramine metabolites in combination with phosphodiesterase inhibitors” (Sepracor Inc., priority 1999, dated 2005)
Where two headings read alike, the source gives them in different places.

Sequences of proteins named here, by UniProt entry; tags and fusion partners are left off.
UniProt P31652, whole entry: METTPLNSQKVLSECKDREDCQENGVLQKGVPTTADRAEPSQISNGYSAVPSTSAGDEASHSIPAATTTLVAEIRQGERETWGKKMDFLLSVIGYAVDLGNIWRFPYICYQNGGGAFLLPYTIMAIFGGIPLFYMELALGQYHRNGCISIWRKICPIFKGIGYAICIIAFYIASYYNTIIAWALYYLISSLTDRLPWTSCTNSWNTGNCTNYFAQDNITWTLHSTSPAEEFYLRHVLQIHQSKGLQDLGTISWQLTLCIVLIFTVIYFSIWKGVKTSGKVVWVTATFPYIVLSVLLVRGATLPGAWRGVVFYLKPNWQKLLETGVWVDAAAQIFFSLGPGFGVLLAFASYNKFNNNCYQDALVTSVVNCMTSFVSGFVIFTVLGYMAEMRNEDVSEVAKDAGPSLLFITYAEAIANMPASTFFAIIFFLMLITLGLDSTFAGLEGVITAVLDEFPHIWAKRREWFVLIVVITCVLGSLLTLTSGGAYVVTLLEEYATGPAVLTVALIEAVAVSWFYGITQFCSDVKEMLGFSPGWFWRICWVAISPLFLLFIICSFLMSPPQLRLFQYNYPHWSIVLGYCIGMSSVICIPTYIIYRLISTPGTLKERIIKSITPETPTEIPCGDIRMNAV
UniProt P31645, whole entry: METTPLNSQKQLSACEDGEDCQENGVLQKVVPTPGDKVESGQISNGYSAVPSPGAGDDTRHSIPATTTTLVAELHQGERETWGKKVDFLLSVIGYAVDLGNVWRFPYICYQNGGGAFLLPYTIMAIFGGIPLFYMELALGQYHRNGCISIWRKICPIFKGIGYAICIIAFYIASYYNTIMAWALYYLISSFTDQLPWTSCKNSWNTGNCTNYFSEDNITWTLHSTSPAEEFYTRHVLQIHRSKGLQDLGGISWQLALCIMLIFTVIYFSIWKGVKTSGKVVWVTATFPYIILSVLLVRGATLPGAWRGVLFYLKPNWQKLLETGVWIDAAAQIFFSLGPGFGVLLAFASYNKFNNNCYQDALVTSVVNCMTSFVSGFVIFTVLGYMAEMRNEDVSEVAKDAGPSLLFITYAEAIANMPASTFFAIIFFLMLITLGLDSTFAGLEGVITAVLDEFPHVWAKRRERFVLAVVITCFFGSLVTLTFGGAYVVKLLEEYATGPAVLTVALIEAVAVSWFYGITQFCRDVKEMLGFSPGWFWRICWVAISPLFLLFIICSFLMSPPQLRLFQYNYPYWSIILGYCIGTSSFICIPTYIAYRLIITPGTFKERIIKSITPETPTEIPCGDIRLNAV

Key:
[1] = molecular target: serotonin (5-HT) uptake site (Rattus norvegicus, UniProt P31652); assay: biochemical
Protocol: (§1) IC50 values (concentration required to inhibit 50% specific binding) were then determined by nonlinear regression analysis of the curves and tabulated below.

[2] = molecular target: 5-hydroxytryptamine (5HT; serotonin) reuptake (Homo sapiens, UniProt P31645); conditions: cited from earlier work
[3] = molecular target: nonselective muscarinic receptor; assay: Binding at the nonselective muscarinic receptor; conditions: rat cerebral cortex
Protocol: as §1

[4] = read-out: Binding IC50 5-HT Uptake, rat cerebral cortex

Compound | IC50 [1, 4] [µM] | IC50 [1] [µM] | also measured
CC(C)CC(N(C)C)C1(c2ccc(Cl)cc2)CCC1 (racemic) [(R/S)-Sibutramine, [N-1-[1-(4-chlorophenyl)cyclobutyl]-3-methylbutyl]-N,N-dimethylamine, reference compound] | 2.8 | – | –
CNC(CC(C)C)C1(c2ccc(Cl)cc2)CCC1 (racemic) [(R/S)-desMe, 1-(4-chlorophenyl)-N-methyl-2-(2-methylpropyl)-cyclobutanamethamine] | – | 0.021 | in vitro 5-hydroxytryptamine reuptake inhibition, potency relative to sibutramine [2]: more potent
CC(C)CC(N)C1(c2ccc(Cl)cc2)CCC1 (racemic) [(R/S)-didesMe, 1-[1-(4-chlorophenyl)cyclobutyl]-3-methylbutylamine] | – | – | in vitro 5-hydroxytryptamine reuptake inhibition, potency relative to sibutramine [2]: more potent
CC(C)C[C@@H](N(C)C)C1(c2ccc(Cl)cc2)CCC1 [(R)-Sibutramine, reference compound] | – | 2.1 | IC50 [3]: 4.01 µM
CN[C@H](CC(C)C)C1(c2ccc(Cl)cc2)CCC1 [(R)-desMe] | 0.044 | – | –
CC(C)C[C@@H](N)C1(c2ccc(Cl)cc2)CCC1 [(R)-didesMe] | 0.14 | – | –
CC(C)C[C@H](N(C)C)C1(c2ccc(Cl)cc2)CCC1 [(S)-Sibutramine, reference compound] | – | 4.9 | IC50 [3]: 3.02 µM
CN[C@@H](CC(C)C)C1(c2ccc(Cl)cc2)CCC1 [(S)-desMe] | – | 9.2 | –
CC(C)C[C@H](N)C1(c2ccc(Cl)cc2)CCC1 [(S)-didesMe] | – | 4.3 | –
